Experiments:
human recombinant PDE4 = target: T1, human recombinant PDE4 (Homo sapiens, UniProt Q07343); assay: Inhibition of human recombinant PDE4 (charcoal separation PDE assay); assay type: biochemical; details: PDE4 IC50 (μM), structure table
T1 construct: made in house; host or cells: Saccharomyces cerevisiae BJ2-54
Method: The compounds of structural formula (I) were tested for an ability to inhibit PDE4. […] The IC50 value for compounds of structural formula (I) were determined using human recombinant PDE4.
Phosphodiesterase activity of the preparations was determined as follows. […] In this assay, PDE activity converts [32P]cAMP or [32P]cGMP to the corresponding [32P]5′-AMP or [32P]5′-GMP in proportion to the amount of PDE activity present. The [32P]5′-AMP or [32P]5′-GMP then was quantitatively converted to free [32P]phosphate and unlabeled adenosine or guanosine by the action of snake venom 5′-nucleotidase. […] The assay was performed at 30° C. in a 100 μL reaction mixture containing (final concentrations) 40 mM Tris HCl (pH 8.0), 1 μM ZnSO4, 5 mM MgCl2, and 0.1 mg/mL bovine serum albumin (BSA). Alternatively, in assays assessing PDE1-specific activity, incubation mixtures further incorporated the use of 0.1 mM CaCl2 and 10 μg/mL calmodulin. PDE enzyme was present in quantities that yield <30% total hydrolysis of substrate (linear assay conditions). The assay was initiated by addition of substrate (1 mM [32P]cAMP or cGMP), and the mixture was incubated for 12 minutes. […] After centrifugation (750×g for 3 minutes) to sediment the charcoal, a sample of the supernatant was taken for radioactivity determination in a scintillation counter and the PDE activity was calculated.

Chains of the proteins cited; added tags and fusions are not shown. Lines headed by an entry give the natural chain unless they say otherwise; changes in a name come on top.
UniProt Q07343: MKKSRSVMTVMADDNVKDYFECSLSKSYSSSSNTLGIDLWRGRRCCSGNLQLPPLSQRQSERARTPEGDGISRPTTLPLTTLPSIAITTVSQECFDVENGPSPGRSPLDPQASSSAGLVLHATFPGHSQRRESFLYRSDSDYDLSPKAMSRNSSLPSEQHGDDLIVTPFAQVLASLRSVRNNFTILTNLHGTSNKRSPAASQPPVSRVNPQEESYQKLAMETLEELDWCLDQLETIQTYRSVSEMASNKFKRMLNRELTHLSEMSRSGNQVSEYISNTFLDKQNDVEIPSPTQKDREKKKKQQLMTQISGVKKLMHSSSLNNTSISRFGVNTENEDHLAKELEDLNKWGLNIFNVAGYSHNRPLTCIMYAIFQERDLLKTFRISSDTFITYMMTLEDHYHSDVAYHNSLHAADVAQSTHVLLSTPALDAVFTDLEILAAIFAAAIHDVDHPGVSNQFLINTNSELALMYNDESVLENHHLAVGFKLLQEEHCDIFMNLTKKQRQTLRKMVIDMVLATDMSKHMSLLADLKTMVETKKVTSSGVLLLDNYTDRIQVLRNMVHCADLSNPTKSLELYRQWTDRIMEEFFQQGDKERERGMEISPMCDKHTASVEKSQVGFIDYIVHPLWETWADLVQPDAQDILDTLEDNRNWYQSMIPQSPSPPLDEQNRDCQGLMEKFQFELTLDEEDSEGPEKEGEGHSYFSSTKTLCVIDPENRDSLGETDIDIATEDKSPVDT

human recombinant PDE4B = target: T2, human recombinant PDE4B (Homo sapiens, UniProt Q07343); assay: Inhibition of human recombinant PDE4B; assay type: biochemical
T2 construct: made in house; host or cells: Saccharomyces cerevisiae strain YI23 harboring HDUN2.32

`CCOC(=O)c1c(C)nn(-c2cccc([N+](=O)[O-])c2)c1C` [Example 2, 3,5-dimethyl-1-(3-nitrophenyl)-1H-pyrazole-4-carboxylic acid ethyl ester] gave an IC50 (human recombinant PDE4) of 0.1 µM and an IC50 (human recombinant PDE4B) of 100 nM.

— patent publication US7087634B2, “Cyclic AMP-specific phosphodiesterase inhibitors” (ICOS Corporation, priority 1999, dated 2006)
